Here are results for 45 molecules from ChEMBL document CHEMBL5728057, “3-((hetero-)aryl)-8-amino-2-oxo-1,3-diaza-spiro-[4.5]-decane derivatives” (2020).

Protein sequences, listed by entry. Tags and fused reporters are not part of them. Lines headed by an entry give the natural chain unless they say otherwise; changes in a name come on top.
UniProt P35372, whole entry, looked up: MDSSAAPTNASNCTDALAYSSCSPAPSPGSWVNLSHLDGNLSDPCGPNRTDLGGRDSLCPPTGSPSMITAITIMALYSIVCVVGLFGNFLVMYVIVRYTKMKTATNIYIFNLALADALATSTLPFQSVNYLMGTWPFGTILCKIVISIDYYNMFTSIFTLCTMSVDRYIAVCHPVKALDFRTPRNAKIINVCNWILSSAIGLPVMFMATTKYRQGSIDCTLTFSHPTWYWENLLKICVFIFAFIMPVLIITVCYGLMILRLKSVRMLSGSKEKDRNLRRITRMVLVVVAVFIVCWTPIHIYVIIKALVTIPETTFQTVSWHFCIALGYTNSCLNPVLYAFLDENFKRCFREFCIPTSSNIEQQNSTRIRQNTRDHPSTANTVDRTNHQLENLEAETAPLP
UniProt P41146: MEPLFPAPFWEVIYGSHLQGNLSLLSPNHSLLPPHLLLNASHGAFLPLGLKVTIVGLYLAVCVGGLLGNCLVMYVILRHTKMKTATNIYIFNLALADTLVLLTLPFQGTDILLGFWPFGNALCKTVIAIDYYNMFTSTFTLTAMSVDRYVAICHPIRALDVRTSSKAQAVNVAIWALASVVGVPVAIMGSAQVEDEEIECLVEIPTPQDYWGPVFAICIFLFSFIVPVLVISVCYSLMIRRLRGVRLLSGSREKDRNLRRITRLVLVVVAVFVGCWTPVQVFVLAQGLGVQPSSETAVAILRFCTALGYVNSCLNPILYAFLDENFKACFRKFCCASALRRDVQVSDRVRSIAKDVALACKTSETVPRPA

For experiment [1], the target named is Mu-type opioid receptor (Homo sapiens, UniProt P35372). The experiment can be described thus: Human Mu-Opioid Peptide (hMOP) Receptor Binding Assay: The hMOP receptor binding assay was performed as homogeneous SPA-assay (scintillation proximity assay) using the assay buffer 50 mM TRIS-HCl (pH 7.4) supplemented with […] bovine serum albumin (Sigma-Aldrich Co. St. Louis. Mo.). The final assay volume (250 l/well) included 1 nM of [N-allyl-2.3-3H]naloxone as ligand (PerkinElmer Life Sc.

Experiment [2] deals with Nociceptin receptor (Homo sapiens, UniProt P41146). The experiment can be described thus: Human Nociceptin/Orphanin FQ Peptide (hNOP) Receptor Binding Assay: The hNOP receptor binding assay was performed as homogeneous SPA-assay (scintillation proximity assay) using the assay buffer 50 mM TRIS-HCl. 10 mM MgCl2. 1 mM EDTA (pH 7.4). The final assay volume (250 μl/well) included 0.5 nM of [leucyl-3H]nociceptin as ligand (PerkinElmer Life Sciences. Inc. Boston. Mass. USA). and either test.

For the molecule `CN(C)[C@]1(c2ccccc2)CC[C@]2(CC1)CN(c1ccc(C#N)cc1)C(=O)N2CC1CCC1`, the Ki in experiment [1] worked out at 0.325 µM; in experiment [2], 0.0032 µM.
The corresponding values for `CN[C@]1(c2ccccc2)CC[C@]2(CC1)CN(c1cnc(C(F)(F)F)nc1)C(=O)N2CC1(O)CCC1` are 0.15 µM and 0.023 µM.
`CCN[C@]1(c2ccccc2)CC[C@]2(CC1)CN(c1ccc(C#N)cc1OC)C(=O)N2CC1(O)CCC1`: the inhibition constant Ki in experiment [1] amounted to 0.46 µM; in experiment [2] it was 0.245 µM.
For the molecule `Cc1cc(C(F)(F)F)ncc1N1C[C@]2(CC[C@](c3ccc(Cl)s3)(N(C)C)CC2)NC1=O`, the results for the Ki in experiment [1] and in experiment [2] were 3.11 µM and 0.051 µM, respectively.
The corresponding values for `CN(C)[C@]1(c2ccccc2)CC[C@]2(CC1)CN(c1ccccc1OCC(N)=O)C(=O)N2` are 1.39 µM and 0.038 µM.
The corresponding values for `CN(C)[C@]1(c2ccccc2)CC[C@]2(CC1)CN(c1cnc(N3CC(F)(F)C3)nc1)C(=O)N2` are 5.34 µM and 0.013 µM.
The like results for `CN(CCO)C(=O)c1ncc(N2C[C@]3(CC[C@](c4ccccc4)(N(C)C)CC3)NC2=O)cn1` were, in that order, 3.49 µM and 0.115 µM.
As to `CN(C)[C@]1(c2ccccc2)CC[C@]2(CC1)CN(c1cccc3ncccc13)C(=O)N2`, the inhibitory constant (Ki) in experiment [1] was found to be 1.59 µM; in experiment [2], 0.022 µM.
The like results for `CN(C)[C@]1(c2ccccc2)CC[C@]2(CC1)CN(c1cccc(C#N)c1)C(=O)N2CC1(O)CCC1` were, in that order, 0.0545 µM and 0.0047 µM.
The corresponding values for `CN(C)[C@]1(c2ccccc2)CC[C@]2(CC1)CN(c1cnc(N3CCNC(=O)C3)nc1C(F)(F)F)C(=O)N2` are 5.7 µM and 0.023 µM.
The corresponding values for `CN(c1ncc(N2C[C@]3(CC[C@](c4ccccc4)(N(C)C)CC3)NC2=O)cn1)C1CCOCC1` are 7.03 µM and 0.012 µM.
`CN(C)[C@]1(c2ccccc2)CC[C@]2(CC1)CN(c1ccc(C#N)cc1)C(=O)N2`: the Ki came out at 4.17 µM in experiment [1] and 0.115 µM in experiment [2].
Regarding `CN(C)[C@]1(c2ccccc2)CC[C@]2(CC1)CN(c1cccc3ncsc13)C(=O)N2`, the Ki is 2.31 µM in experiment [1] and 0.03 µM in experiment [2].
The like results for `CN(C)[C@]1(c2ccccc2)CC[C@]2(CC1)CN(c1ccc(C(F)(F)F)cc1)C(=O)N2` were, in that order, 3.47 µM and 0.057 µM.
The corresponding values for `CN(C)[C@]1(c2ccccc2)CC[C@]2(CC1)CN(c1ccc(C(F)(F)F)cn1)C(=O)N2` are 3.21 µM and 0.025 µM.
The corresponding values for `CN[C@]1(c2ccccc2)CC[C@]2(CC1)CN(c1cnc(C)nc1)C(=O)N2CC1(O)CCC1` are 0.13 µM and 0.024 µM.
For the molecule `CN(C)[C@]1(c2ccccc2)CC[C@]2(CC1)CN(c1ccc(C#N)cn1)C(=O)N2`, the inhibitory constant (Ki) in experiment [1] was 1.83 µM; in experiment [2] it was 0.023 µM.
The corresponding values for `CN1C(=O)N(c2cnc(C#N)nc2)C[C@]12CC[C@](c1cccc(F)c1)(N(C)C)CC2` are 10.9 µM and 0.23 µM.
The like results for `CN[C@]1(c2cccc(F)c2)CC[C@]2(CC1)CN(c1cc(C(F)(F)F)nn1C)C(=O)N2CC1CC1` were, in that order, 0.805 µM and 0.024 µM.
The like results for `Cc1ncc(N2C[C@]3(CC[C@](c4ccccc4)(N(C)C)CC3)N(CC3(O)CCC3)C2=O)cn1` were, in that order, 0.061 µM and 0.012 µM.
Take `CN(C)[C@]1(c2ccccc2)CC[C@]2(CC1)CN(c1cnc(N3CCN(CC(N)=O)CC3)nc1)C(=O)N2`: the inhibitory constant (Ki) in experiment [1] came out at 4.61 µM; in experiment [2] it was 0.008 µM.
The like results for `CN(C)[C@]1(c2ccccc2)CC[C@]2(CC1)CN(c1c(F)cc(C#N)cc1F)C(=O)N2` were, in that order, 6.38 µM and 0.045 µM.
As to `CN[C@]1(c2ccccc2)CC[C@]2(CC1)CN(c1ccccc1CS(C)(=O)=O)C(=O)N2CC1CC1`, the values for the Ki in experiment [1] and in experiment [2] were 0.43 µM and 0.084 µM, respectively.
The like results for `Cc1nc(N2CCOCC2)ncc1N1C[C@]2(CC[C@](c3cccs3)(N(C)C)CC2)NC1=O` were, in that order, 1.95 µM and 0.011 µM.
Take `CCN[C@]1(c2ccccc2)CC[C@]2(CC1)CN(c1ccccc1C#N)C(=O)N2CC1(O)CCC1`: the inhibition constant (Ki) in experiment [1] was 0.915 µM; in experiment [2] it was 0.265 µM.
For the molecule `COCCCCN1C(=O)N(c2cnc(C#N)nc2)C[C@]12CC[C@](c1cccc(F)c1)(N(C)C)CC2`, the Ki in experiment [1] was 0.38 µM; in experiment [2] it was 0.013 µM.
The corresponding values for `CN(C)[C@]1(c2ccccc2)CC[C@]2(CC1)CN(c1ccccc1C(N)=O)C(=O)N2` are 6.04 µM and 0.056 µM.
With `COc1cccnc1N1C[C@]2(CC[C@](c3ccccc3)(N(C)C)CC2)NC1=O`, the Ki in experiment [1] is 3.89 µM; in experiment [2], 0.115 µM.
The like results for `CN(C)[C@]1(c2ccccc2)CC[C@]2(CC1)CN(c1ccccc1C#N)C(=O)N2CC1(O)CCC1` were, in that order, 0.17 µM and 0.0082 µM.
The like results for `CN(C)[C@]1(c2ccccc2)CC[C@]2(CC1)CN(c1ncc(C#N)cc1F)C(=O)N2` were, in that order, 3.52 µM and 0.066 µM.
The like results for `CN(C)[C@]1(c2ccccc2)CC[C@]2(CC1)CN(c1ccc(C(N)=O)nc1)C(=O)N2` were, in that order, 5.33 µM and 0.014 µM.
For `CN(C)[C@]1(c2ccccc2)CC[C@]2(CC1)CN(c1ccccc1C(N)=O)C(=O)N2CC1COC1`, the Ki in experiment [1] worked out at 1.38 µM; in experiment [2], 0.092 µM.
As for `CN(C)[C@]1(c2ccccc2)CC[C@]2(CC1)CN(c1cnc(N3CCNCC3)nc1)C(=O)N2`, the figures for the Ki in experiment [1] and in experiment [2] were 1.09 µM and 0.005 µM, respectively.
As to `CN(C)[C@]1(c2ccccc2)CC[C@]2(CC1)CN(c1ccc(N3CCOCC3)nc1)C(=O)N2`, the Ki in experiment [1] stood at 3.95 µM; in experiment [2] it was 0.015 µM.
The corresponding values for `CN(CCO)c1ncc(N2C[C@]3(CC[C@](c4ccccc4)(N(C)C)CC3)NC2=O)cn1` are 2.52 µM and 0.013 µM.
With `CN[C@]1(c2ccccc2)CC[C@]2(CC1)CN(c1ncc(C#N)cn1)C(=O)N2CCCOC`, the figures for the inhibitory constant (Ki) in experiment [1] and in experiment [2] were 0.855 µM and 0.74 µM, respectively.
The corresponding values for `Cc1cc(C#N)cnc1N1C[C@]2(CC[C@](c3ccccc3)(N(C)C)CC2)NC1=O` are 7.02 µM and 0.051 µM.
The corresponding values for `CN(C)[C@]1(c2ccccc2)CC[C@]2(CC1)CN(c1cnc3[nH]ccc3c1)C(=O)N2` are 1.15 µM and 0.012 µM.
The corresponding values for `CN(C)[C@]1(c2ccccc2)CC[C@]2(CC1)CN(c1cncc(C#N)c1)C(=O)N2` are 1.23 µM and 0.068 µM.
Regarding `CN[C@]1(c2ccccc2)CC[C@]2(CC1)CN(c1cnc(C#N)nc1)C(=O)N2CCCOC`, the inhibitory constant (Ki) stood at 0.655 µM in experiment [1] and 0.07 µM in experiment [2].
The like results for `CN(C)[C@]1(c2ccccc2)CC[C@]2(CC1)CN(c1cccnn1)C(=O)N2` were, in that order, 1.05 µM and 0.245 µM.
`CN(C)[C@]1(c2ccccc2)CC[C@]2(CC1)CN(c1csc(-c3ccncc3)n1)C(=O)N2` returned a Ki in experiment [2] of 0.45 µM.
For the molecule `Cc1cnccc1N1C[C@]2(CC[C@](c3ccccc3)(N(C)C)CC2)NC1=O`, the affinity in experiment [2] corresponds to a Ki of 0.052 µM.
Same read-out and setting: with `Cc1cc(-c2ccccn2)ncc1N1C[C@]2(CC[C@](c3ccccc3)(N(C)C)CC2)NC1=O` the figure was 0.005 µM.
Still for that read-out and setting: for `CN(C)[C@]1(c2ccccc2)CC[C@]2(CC1)CN(c1cnc(C(N)=O)nc1)C(=O)N2` the value was 0.119 µM.
